From patent US20170095417A1, “Percutaneous Implement and Method for Manufacturing” (priority 2015, published 2017)

Experiments:
[1] = 100 micro implements (10 x 10) in a medication; 0.01 mg Insulin per implement; 50% Insulin in Maltose
rat = assay: Micro payload injected in rat, hypotension and dye distribution (Example 5); details: half-shell Maltose cone mixed Rhodamine 6B
Protocol: A sample of micro payload integrated a 1 mm length conic micro-head with drug and 2 mm length micro-stem without drug was injected in rat.

Substance	Insulin transferred into body [1]	distribution of color in body (rat)
Insulin	1 mg	–
Rhodamine 6B	–	recognized in rat whole body
